The entries are a selection whose mix differs from that of the whole data set. Inconclusive results are not listed. Active and inactive are the calls of the source. Calls come from the whole dose curve; as a rule, active = well fitted inhibition curve with a large enough effect; inconclusive = small, poorly fitted or top-dose-only effect; inactive = flat fitted curve, though single readings scatter.
Tested on: NanoLuc luciferase (engineered Oplophorus gracilirostris luciferase)
Experiment: Biochemical NLuc saturation counterscreen for small molecule modulators of PMP22 gene expression - Nano-Glo assay
Settings: Secreted NLuc enzyme (filtered S16 cell medium), Nano-Glo luminescence; at 57.5 µM (top of the series)
Source text: Assay Provider: Jim Inglese Ph.D. National Center for Advancing Translational Science, National Institutes of Health, Rockville, MD CMT is a heterogeneous group of neurological disorders that affect approximately 1 in 2,500 people. In particular, the most common form of CMT, CMT1A is genetically linked to the duplication of the PMP22 gene which leads to Schwann cell overexpression, thus manifesting itself as a typical case of dose-sensitive diseases. […] We can further discriminate the effect of all transcriptionally active molecules on PMP22 translation or stability with an assay that incorporates a short NLuc peptide (HiBiT) at the C-terminus of expressed PMP22 (S16(f8) PMP22-HiBiT) allowing alpha complementation and luminescence detection of membrane-associated PMP22 protein. […] Miniaturization of these assays to 1536-well plate format for quantitative high throughput screening (qHTS) yielded rich data sets immediately from the qHTS assay (S16(c9) Pmp22-F2sN), when compared with data from a cell viability assay (Cell TiterGlo) to identify compounds that decreased the output signals through cellular toxicity to streamline the selection process of actives for subsequent characterization using the HiBiT assay (S16(f8) PMP22-HiBiT). […]
% is set by controls: 0 for no effect and ±100 for the full control effect.

**Q.** `CC(C)(C)c1ccc(C(=O)NCC2(N3CCOCC3)CCCCC2)cc1` was tested. Which activity change, negative = inhibition did it give?
**A.** Its activity change, negative = inhibition is inactive: -3.07%.

Source: PubChem BioAssay AID1508638 (National Center for Advancing Translational Sciences (NCATS), 2021)
